Measured values reported in patent US5902583A, “Genetic induction of receptors for targeted radiotherapy” (priority 1997, dated 1999).

The chains behind the UniProt entries cited, without tags or fusion partners. Where a name states a change or a piece, a line headed by the entry shows the natural chain unless it says otherwise.
UniProt P21729: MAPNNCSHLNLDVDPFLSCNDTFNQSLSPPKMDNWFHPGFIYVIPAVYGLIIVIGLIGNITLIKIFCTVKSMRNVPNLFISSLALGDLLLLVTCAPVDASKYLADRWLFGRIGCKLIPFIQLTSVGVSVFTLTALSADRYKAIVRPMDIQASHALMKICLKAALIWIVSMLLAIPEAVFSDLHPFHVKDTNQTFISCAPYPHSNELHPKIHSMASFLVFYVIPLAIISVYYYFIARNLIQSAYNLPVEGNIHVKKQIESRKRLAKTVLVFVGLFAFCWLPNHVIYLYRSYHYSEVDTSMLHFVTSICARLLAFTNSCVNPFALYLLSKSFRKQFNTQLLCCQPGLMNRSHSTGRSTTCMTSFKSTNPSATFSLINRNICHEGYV

Target: T1, murine gastrin releasing peptide receptor (mGRPr) (Mus musculus, UniProt P21729)
T1 construct: expressed in transfected cells; host or cells: human carcinoma lines A427, D54MG, U251MG, LS174T, WiDr, OVCAR-3, OV-4, SKOV3.ip1 infected with AdCMVGRPr; positive control: mouse fibroblast line BNR-11 stably expressing mGRPr
Assay: Live-cell binding of radiolabeled bombesin after AdCMVGRPr infection of human carcinoma cell lines
Details: all cell lines examined, AdCMVGRPr infected
Experimental: Infections with recombinant adenoviruses were performed as previously described. Cells were harvested for radiolabeled binding assay 48 hours following adenoviral mediated infection by removal at 37° C. with 4 mM EDTA, 0.05% KCl. Detached cells were washed once with 0.1% BSA/PBS pH 7.2, enumerated and resuspended at 1×10^7 per ml. Each set of cells was aliquoted into 100 μl samples in duplicate polystyrene test tubes following the addition of 100,000 cpm (100 μl) of [^125 I]-Tyr-bombesin (DuPont NEN Research Products, Boston, Mass.). […] The solutions were mixed at room temperature for 1 hour, rinsed with PBE and centrifuged at 1700×g for 10 min. The supernatant was removed and the cells were counted in a gamma counter to determine the amount of bound radioactivity. Radioactivity bound was then plotted as the percent cpm bound to the cells versus the total amount of cpm added. The human ovarian carcinoma cell line SKOV3.ip1 expresses the cell surface receptor for erbB-2. Therefore, a non-internalizing monoclonal antibody (e21) against a cell surface epitope of erbB-2 was employed (provided by C. Richter King, Oncologix, Inc., Gaithersburg, Md.). The e21 antibody was ^125 I-labeled using the lodogen method and utilized in an in vitro live-cell binding assay with the SKOV3.ip1 cells. […] Cells were washed and bound radioactivity determined as described above. […]

Substance: ^125 I-labeled bombesin: ^125 I-labeled bombesin
- radioactivity bound to the cells: 60-80%
